We go through 69 compounds from PubChem BioAssay AID923 (National Center for Advancing Translational Sciences (NCATS), 2007).

Only a part is listed here, and it is no random draw. Active and inactive are the calls of the source. Calls come from the whole dose curve; as a rule, active = well fitted activation curve with a large enough effect; inconclusive = small, poorly fitted or top-dose-only effect; inactive = flat fitted curve, though single readings scatter.

This assay can be described thus: qHTS Assay for Allosteric/Competitive Inhibitors of Caspase-1: Spectroscopic Profiling in AFC Spectral Region. Note: 0% is about no effect. To be noted: compound fluorescence, AFC spectral region (405/520 nm); at 57.5 µM (top of the series) unless noted. In general terms: In qHTS, concentration-response curves come from the screen itself.
As to `COc1ccccc1OP(C)(=O)Nc1ccc(C)c(C)c1` (centres undefined), the fluorescence increase is inactive: -0.269%.
Take `C(Cc1nn[nH]n1)c1nn[nH]n1`: the fluorescence increase was inactive: 3.41% [at 11.5 µM].
With `Cc1nc2ccc3ccccc3c2o1.O=[N+]([O-])c1cc([N+](=O)[O-])c(O)c([N+](=O)[O-])c1`, the fluorescence increase was inactive: -1.53%.
As to `[N-]=[N+]=NCC(O)CN=[N+]=[N-]` (centres undefined), the fluorescence increase is inactive: 2.53% [at 11.5 µM].
`O=[N+]([O-])c1ccc(C[As](=O)(O)O)cc1`: the fluorescence increase was inactive: -0.764% [at 11.5 µM].
Regarding `CP(=O)(Nc1ccccn1)Oc1ccccc1` (centres undefined), the fluorescence increase was inactive: -0.965%.
With `NCC[C@@H](N)CSP(=O)(O)O`, the fluorescence increase is inactive: 1.42% [at 11.5 µM].
With `Cc1c2non([O-])c-2c(C)[n+](=O)[n+]1[O-]` the figure was inactive: 0.391%; with `COc1ccccc1OP(C)(=O)Nc1c(C)n(C)n(-c2ccccc2)c1=O` (centres undefined), inactive: 4.13%; with `OCCSCCO`, inactive: 1.89%.
With `CP(=O)(Oc1ccccc1)N1CCOC1=O` (centres undefined), the fluorescence increase is inactive: 2.84%.
As for `CCc1nc2c(n1)c1c(non1O)c1c2no[n+]1[O-]`, the fluorescence increase is inactive: -2.13%.
With `N#[O+].[C-]#N.[C-]#N.[C-]#N.[C-]#N.[C-]#N.[Fe+2].[Na+].[Na+]` the figure was inactive: -0.72%; with `O=C(CO)Nc1ccc([As](=O)(O)O)cc1`, inactive: 5.06% [at 11.5 µM].
Take `CN(C(=O)Cc1ccccc1)[C@@H]1CC[C@@]2(CCCO2)C[C@H]1N1CCCC1`: the fluorescence increase is inactive: -2.94%.
Take `CN(C)CCOC(=O)C(O)(c1ccccc1)C1CCCCC1` (centres undefined): the fluorescence increase is inactive: 0.511%.
Consider `[N-]=[N+]=Nc1ccc([As](=O)(O)O)cc1`, for which the fluorescence increase was inactive: -0.842% [at 11.5 µM].
With `Cc1cc([N+](=O)[O-])cc([N+](=O)[O-])c1O` the figure was inactive: -3.76%; with `O=C(OC1CN2CCC1CC2)c1cccc(Cl)c1` (centres undefined), inactive: 0.31%.
Turning to `Cc1c([N+](=O)[O-])cccc1[N+](=O)[O-]`, the fluorescence increase was inactive: 0.431%.
`Cc1ccc([N+](=O)[O-])c([N+](=O)[O-])c1`: the fluorescence increase was inactive: -1.78%.
On to `CCOP(C)(=S)SCC(=O)NC(C)(CC)C(=O)O` (centres undefined), for which the fluorescence increase was inactive: 2.01%.
In the case of `CCOP(=O)(CC)OCC`, the fluorescence increase was inactive: -0.662%.
Consider `c1nnnn1CCn1cnnn1`, for which the fluorescence increase is inactive: 0.0231%.
Take `O=P(Nc1nccs1)(c1ccccc1)c1ccccc1`: the fluorescence increase is inactive: 3.03%.
Turning to `CCN(CCCl)Cc1ccccc1C`, the fluorescence increase is inactive: -2.39%.
`Cc1ccccc1NP(C)(=O)Nc1ccccc1C`: the fluorescence increase was inactive: 0.145%.
With `C[C@@H](O)COc1ccc([As](=O)(O)O)cc1N` the figure was inactive: 4% [at 11.5 µM].
Regarding `[NH4+].[O-][Cl+3]([O-])([O-])[O-]`, the fluorescence increase was inactive: 0.105%.
In the case of `NNC(NN)NN.n1nc(-c2nn[nH]n2)n[nH]1`, the fluorescence increase was inactive: 2.57% [at 11.5 µM].
`CP(=O)(Nc1ccc2c(c1)OCCO2)Oc1ccccc1` (centres undefined): the fluorescence increase is inactive: 2.17%.
With `CN1CCC[C@H](OC(=O)C(c2ccccc2)c2ccccc2)C1` the figure was inactive: 0.994% [at 11.5 µM]; with `CP(=O)(Nc1ccccc1F)Oc1ccccc1` (centres undefined), inactive: -1.31%.
With `O=P1(Nc2nc3ccc(Cl)cc3s2)COc2ccccc2O1` (centres undefined) the figure was inactive: -0.412%; with `CCC(C)(OO)OOC(C)(CC)OO` (centres undefined), inactive: 0.927%.
Take `Cc1cccc([N+](=O)[O-])c1[N+](=O)[O-]`: the fluorescence increase was inactive: 0.734%.
With `COC(=O)c1cc2c(s1)N=C(c1ccccc1)N(C)P2(=O)N1CCOCC1` (centres undefined) the figure was inactive: 0.139%; with `O=[As](O)(O)c1ccc([As](=O)(O)O)cc1`, inactive: 1.7% [at 11.5 µM]; with `CCOP1(=S)c2c(C)nn(CCC#N)c2N=C(c2ccccc2F)N1C` (centres undefined), inactive: 1.52%.
For the compound `O=P(Nc1nccs1)(c1ccccc1)c1nc2ccccc2s1` (centres undefined), the fluorescence increase was inactive: 2.21%.
With `O=[N+]([O-])c1cccc([N+](=O)[O-])c1`, the fluorescence increase is inactive: 0.461%.
For `CCOP1(=S)c2c(C)nn(CCC#N)c2N=C(c2ccc(F)cc2)N1C` (centres undefined), the fluorescence increase was inactive: -1.45%.
Consider `Cc1ccc([N+](=O)[O-])cc1[N+](=O)[O-]`, for which the fluorescence increase was inactive: -0.0432%.
As to `CN(C(=O)Cc1ccc(Cl)c(Cl)c1)[C@@H]1CC[C@@]2(CCCO2)C[C@H]1N1CCCC1`, the fluorescence increase is inactive: -2.02%.
With `Cc1ccc(C)c(NP(C)(=O)Oc2ccccc2)c1` (centres undefined) the figure was inactive: -1.17%; with `O=C(CC(=O)c1ccccc1)O[C@H]1CN2CCC1CC2`, inactive: 0.587% [at 11.5 µM].
Consider `NS(=O)(=O)Cc1ccc([As](=O)(O)O)cc1`, for which the fluorescence increase is inactive: 0.737% [at 11.5 µM].
For the compound `Clc1n[nH]nc1-c1nn[nH][15n]1`, the fluorescence increase is inactive: -0.517%.
As for `CN(CCCl)Cc1cc(Cl)c(NC2=NCCN2)c(Cl)c1`, the fluorescence increase is inactive: -1.08%.
Take `O=P1(Nc2ccccn2)COc2ccccc2OC1`: the fluorescence increase was inactive: 1.1%.
Consider `Cc1nc2ccc3ccccc3c2s1.O=[N+]([O-])c1cc([N+](=O)[O-])c(O)c([N+](=O)[O-])c1`, for which the fluorescence increase was inactive: -1.33%.
Take `Cc1nn(-c2ccccc2)c2c1P(=O)(N1CCOCC1)N(C)C(c1ccccc1)=N2` (centres undefined): the fluorescence increase is inactive: -2.51%.
`O=P1(Nc2ccc(Br)cn2)COc2ccccc2OC1`: the fluorescence increase was inactive: 0.565%.
In the case of `O=P1(Nc2ncccn2)COc2ccccc2OC1`, the fluorescence increase was inactive: -2.85%.
For `N1=C(c2nnc(-c3nn[nH]n3)nn2)NNN1`, the fluorescence increase is inactive: -2.28% [at 11.5 µM].
In the case of `CN(N=O)C(=N)N[N+](=O)[O-]`, the fluorescence increase is inactive: 0.722%.
To `CP(=S)(Nn1cnnc1)Oc1ccccc1` (centres undefined) belongs inactive: 2.72%; to `O=C(O)[C@@H](O)c1ccc([As](=O)(O)O)cc1`, inactive: -2.19% [at 11.5 µM].
Turning to `CP(=O)(NC(=O)Nc1ccccc1)Oc1ccccc1` (centres undefined), the fluorescence increase is inactive: 1.3%.
In the case of `O=C(COc1ccccc1)OC1CN2CCC1CC2` (centres undefined), the fluorescence increase was inactive: -0.768%.
In the case of `COP1(=S)c2c(C)nn(CCC#N)c2N=C(c2ccc(F)cc2)N1C` (centres undefined), the fluorescence increase is inactive: -1.07%.
`CCOP(C)(=S)SCC(=O)NC(C)C(=O)O` (centres undefined): the fluorescence increase is inactive: 0.453%.
As for `NC(=O)Nc1cc([As](=O)(O)O)cc(I)c1O`, the fluorescence increase was inactive: -0.0887% [at 11.5 µM].
On to `O=C(OC1CN2CCC1CC2)C12CC3CC(CC(C3)C1)C2` (centres undefined), for which the fluorescence increase is inactive: 1.71%.
As to `O=[N+]([O-])[O-].[NH4+]`, the fluorescence increase is inactive: 2.05%.
Turning to `COc1ccccc1OP(C)(=O)Nc1ccc(C)cc1` (centres undefined), the fluorescence increase is inactive: 0.353%.
Regarding `[N-]=[N+]=NCC(N)=O`, the fluorescence increase is inactive: -0.299% [at 11.5 µM].
To `Cc1ccc(NP(C)(=O)Oc2ccccc2)c(C)c1` (centres undefined) belongs inactive: -1.5%; to `O=[As]c1ccc(S(=O)(=O)NCCO)cc1` (centres undefined), inactive: 0.727% [at 11.5 µM].
